The term EC50 denotes the concentration at which the effect is half-maximal.

This note sets out measurements from paper PMC8279415, “Targeting Acute Myelogenous Leukemia Using Potent Human Dihydroorotate Dehydrogenase Inhibitors Based on the 2-Hydroxypyrazolo[1,5-a]pyridine Scaffold: SAR of the Biphenyl Moiety” (Journal of Medicinal Chemistry, 2021).

Structures are written as SMILES.

This assay concerns THP1 cells. The experiment in a line: Annexin V apoptosis assay in THP1. To be noted: read-out: apoptosis EC50 THP1 (CL 95%), 3 days.

Regarding `Cc1c(-c2ccc(-c3ccccc3F)cc2)nc2ccc(F)cc2c1C(=O)O` [Brequinar, reference compound], the EC50 worked out at 264 nM.
